Measured values: US8792095B2, “Methods and apparatus for transport of airborne molecules using an active cyclical vapor/liquid exchange” (dated 2014)

Key:
[1] = Equilibrium vapor pressure / saturated vapor concentration; settings: relative to DNT
[2] = Partitioning properties into water (Henry's constant, equilibrium aqueous concentration)
[3] = gas-phase saturation value; cited from earlier work
[4] = partitioning into water; cited from earlier work

With `Cc1ccccc1` the “vapor pressure compared with DNT” value [1] was “six orders of magnitude higher”, the “Partitioning (relative to Toluene)” value ([2]; into water, relative to toluene) was 1 and the Equilibrium aqueous concentration ([2]; water, equilibrium (saturation in liquid phase)) was 50 mM. For the same compound, the “Equilibrium Vapor pressure 300k” value [3] was 3e8 ppb and the “Henry's Const” value [4] was 5e−3 Atm m^3/mol.
